{
  "source": "patent US8394391B2",
  "about": "“Drug delivery vehicle that mimics viral properties” (University of Utah Research Foundation, priority 2007, dated 2013)",
  "assay": "Dynamic light scattering particle size as a function of pH",
  "type": "physicochemical",
  "details": "control",
  "procedure": "Dynamic light scattering (Malvern Instrument) was used to determine the particle size of the virogels as a function of pH. […] Virogels were equilibrated at each pH for 1 hour before measurements were taken. As a control, the particle size of BSA was also measured as a function of pH.",
  "data": [
    {"substance": "bovine serum albumin [BSA]", "values": [
      {"measurement": "difference in particle size with changes in pH", "result": "no significant difference in particle size"}
    ]}
  ]
}
